Earlier results on 1 substance are cited in patent US10596221B2, “Controlled-release fertilizer comprising oxidized glutathione” (Kaneka Corporation, priority 2015, dated 2020).

For this data set the following is noted: salt prepared under a specific heating condition.

On to “Ammonium salt of oxidized glutathione [ammonium salt of GSSG]”, for which the deliquescence result is on record as “low” and the water solubility result is on record as “high”.
